# Data as given in US20260266848A1, “COMPOSITIONS AND METHODS FOR DIAGNOSING AND TREATING DYSTONIA” (Duke University, priority 2023, published 2026).
# Assays:
# [1] = tested on: WT MEF EVs; assay: Quantitative LC-MS/MS proteomics of EVs from ISRIB-treated WT MEF cultures; type: cell-based, mouse; set-up: key to ISRIB and DYT Parallel Direction: YES = protein abundance effect similar to DYT/WT; details: EV protein abundance
# [2] = tested on: DYT-TOR1A MEF EVs; assay: Quantitative LC-MS/MS proteomics of EVs from drug-treated DYT-TOR1A MEF cultures (ritonavir, salubrinal); type: cell-based, mouse; set-up: key to RTV Corrective Direction: YES = protein abundance effect opposite to DYT/WT; details: EV protein abundance
molecule,measurement,setting,value
"Pnp (protein, UniProt P23492 1-289, looked up) Purine nucleoside …: MENEFTYEDYETTAKWLLQHTEYRPQVAVICGSGLGGLTAHLKEAQIFDYNEIPNFPQSTVQGHAGRLVFGLLNGRCCVMMQGRFHMYEGYSLSKVTFPVRVFHLLGVETLVVTNAAGGLNPNFEVGDIMLIRDHINLPGFCGQNPLRGPNDERFGVRFPAMSDAYDRDMRQKAFTAWKQMGEQRKLQEGTYVMLAGPNFETVAESRLLKMLGADAVGMSTVPEVIVARHCGLRVFGFSLITNKVVMDYENLEKANHMEVLDAGKAAAQTLERFVSILMESIPLPDRGS",WT + ISRIB/WT Cohen's d,[1]; ISRIB-treated WT vs WT,−0.76
same,ISRIB and DYT Parallel Direction,"[1]; WT + ISRIB vs WT, direction compared with DYT/WT",YES
same,RTV Corrective Direction,"[2]; DYT + RTV (ritonavir) vs DYT, direction compared with DYT/WT",YES
same,DYT + RTV/DYT Cohen's d,[2]; ritonavir (RTV)-treated DYT vs DYT,1.71
